Values quoted from earlier work in publication PMC7190706, “A Self-Assembling Lipidic Peptide and Selective Partial V2 Receptor Agonist Inhibits Urine Production” (Scientific Reports, 2020).

Test system: human V1b receptor
Conditions: lower EC50 than against the human V2 receptor; cited from earlier work

Question: For desmopressin, which “agonism at the human V1b receptor” value is on record?
Answer: potent agonist
